The values below come from PubChem BioAssay (Tox21).

The chains behind the UniProt entries cited, without tags or fusion partners. Where a name states a change or a piece, a line headed by the entry shows the natural chain unless it says otherwise.
UniProt P34981: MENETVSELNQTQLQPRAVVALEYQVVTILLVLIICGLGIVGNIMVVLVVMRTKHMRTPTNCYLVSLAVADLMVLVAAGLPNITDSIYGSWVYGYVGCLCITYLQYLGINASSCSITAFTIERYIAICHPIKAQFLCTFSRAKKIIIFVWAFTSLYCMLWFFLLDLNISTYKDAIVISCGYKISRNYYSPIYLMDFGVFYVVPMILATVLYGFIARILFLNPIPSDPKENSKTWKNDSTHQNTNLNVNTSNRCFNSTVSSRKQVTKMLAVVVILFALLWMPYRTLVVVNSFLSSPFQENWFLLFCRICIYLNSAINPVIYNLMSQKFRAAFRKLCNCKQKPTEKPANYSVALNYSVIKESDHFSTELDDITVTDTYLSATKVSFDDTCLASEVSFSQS
UniProt P11511: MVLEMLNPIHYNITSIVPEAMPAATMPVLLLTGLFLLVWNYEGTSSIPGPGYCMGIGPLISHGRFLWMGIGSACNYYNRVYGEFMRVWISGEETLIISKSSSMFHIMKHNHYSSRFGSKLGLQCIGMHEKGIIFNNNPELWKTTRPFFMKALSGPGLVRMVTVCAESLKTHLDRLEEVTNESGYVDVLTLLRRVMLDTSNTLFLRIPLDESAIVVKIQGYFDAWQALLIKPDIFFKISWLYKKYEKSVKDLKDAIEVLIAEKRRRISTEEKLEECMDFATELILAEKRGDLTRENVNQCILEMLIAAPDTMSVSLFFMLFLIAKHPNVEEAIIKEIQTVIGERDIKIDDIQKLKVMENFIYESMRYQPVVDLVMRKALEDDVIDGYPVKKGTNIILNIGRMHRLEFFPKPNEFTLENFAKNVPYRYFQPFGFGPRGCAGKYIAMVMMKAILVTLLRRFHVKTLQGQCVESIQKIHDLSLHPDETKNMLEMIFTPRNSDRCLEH
UniProt P35869: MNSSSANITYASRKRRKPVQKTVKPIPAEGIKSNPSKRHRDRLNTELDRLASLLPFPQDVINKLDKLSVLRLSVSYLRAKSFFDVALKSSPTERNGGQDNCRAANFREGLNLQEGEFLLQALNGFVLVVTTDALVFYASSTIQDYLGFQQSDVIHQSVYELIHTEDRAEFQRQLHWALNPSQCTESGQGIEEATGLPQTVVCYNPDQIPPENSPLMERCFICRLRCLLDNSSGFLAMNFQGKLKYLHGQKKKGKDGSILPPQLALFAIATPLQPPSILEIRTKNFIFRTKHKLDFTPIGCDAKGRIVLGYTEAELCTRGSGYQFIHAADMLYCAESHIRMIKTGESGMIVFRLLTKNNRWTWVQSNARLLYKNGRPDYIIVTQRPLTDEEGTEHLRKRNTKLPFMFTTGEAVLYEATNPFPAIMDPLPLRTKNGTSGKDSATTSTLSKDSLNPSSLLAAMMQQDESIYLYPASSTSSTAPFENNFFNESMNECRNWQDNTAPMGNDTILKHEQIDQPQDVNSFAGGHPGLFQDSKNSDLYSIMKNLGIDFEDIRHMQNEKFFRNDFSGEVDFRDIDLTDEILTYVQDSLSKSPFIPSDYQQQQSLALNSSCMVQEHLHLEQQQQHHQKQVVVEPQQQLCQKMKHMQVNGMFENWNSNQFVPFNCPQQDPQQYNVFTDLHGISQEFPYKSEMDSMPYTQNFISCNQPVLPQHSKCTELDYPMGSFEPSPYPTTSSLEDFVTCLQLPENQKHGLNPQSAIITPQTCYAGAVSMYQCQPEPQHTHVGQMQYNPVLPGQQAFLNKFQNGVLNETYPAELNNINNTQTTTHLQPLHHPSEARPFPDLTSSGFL

Each structure is given as a SMILES string. “And” between values parts separate entries of the source, which are not always exact repeats. Equal values may be shown once. Shown are results outside the selection of hits, which stands elsewhere. Inconclusive results are not listed. Some structures have more than one record in an assay (separate samples or runs), and their calls can disagree. The source made the active and inactive calls. Unless noted, the call rests on the fitted dose curve; in most records, active means well fitted curve in the direction sought with a large enough effect in the repeat runs; inconclusive means weak or mixed curves; inactive means no such curve, though single readings can be large; an effect the other way counts as inactive or inconclusive.

In test [1] the target is Thyrotropin-releasing hormone receptor (Homo sapiens) (UniProt P34981). Description: qHTS assay to identify small molecule antagonists of the thyrotropin-releasing hormone receptor (TRHR) signaling pathway (AID 1346877; active means well fitted inhibition curve with a large enough effect in the repeat runs, not every such curve was filed as active). The following applies: TRHR-HEK293, TRH-induced calcium fluorescence, antagonist mode. Background: In qHTS, concentration-response curves come from the screen itself.

Test [2] has as its target Nuclear receptor subfamily 1 group I member 2 (Homo sapiens) (UniProt O75469). Nature of the test: Human pregnane X receptor (PXR) small molecule agonists, qHTS assay (AID 1346982). Further: nearly all actives have a fitted effect of over 35% in size. Further: potency means the concentration at half of the fitted maximal effect. Conditions: PXR-Luc HepG2, CYP3A4 luciferase reporter, 24 h; series mostly up to 42.5 µM. In a few lines:
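After plating in 5% charcoal-stripped FBS and a 5 hr rest, PXR-Luc HepG2 cells received compounds in DMSO. Following 24 hr at 37 C, ONE-Glo was added and light output read.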

Test [3] is described as follows: qHTS assay for small molecule agonists of the p53 signaling pathway (AID 651631; calls by dose curve; further: nearly all actives have a fitted effect of over 15% in size). Conditions: HCT-116 p53RE-bla reporter, beta-lactamase FRET ratio, 16 h. In a few lines: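 HCT-116 cells carrying a beta-lactamase reporter under p53 response elements were dosed with compound for 16 h at 37 °C. LiveBLAzer B/G FRET substrate was then added for 2 h at room temperature, and fluorescence intensity was read to detect pathway agonism.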

A further test deals with Aromatase (Homo sapiens) (UniProt P11511). Description: qHTS assay to identify aromatase inhibitors (AID 743083). Further: nearly all actives have a fitted effect of over 55% in size. The following applies: MCF-7 aro ERE, testosterone-driven ERE luciferase, 24 h.
For test [4], the target named is Aryl hydrocarbon receptor (Homo sapiens) (UniProt P35869). Nature of the test: qHTS assay to identify small molecule that activate the aryl hydrocarbon receptor (AhR) signaling pathway (AID 743085).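 Further: HG2L7.5c1 human HepG2 liver cells with stably integrated DRE-driven firefly reporter; nearly all actives have a fitted effect of over 15% in size.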 Conditions: HepG2 AhR-luc (HG2L7.5c1), luciferase, 24 h.
Test [5] is described as follows: Caspase-3/7 induction in HepG2 cells by small molecules, qHTS assay (AID 1346978). Further: nearly all actives have a fitted effect of over 15% in size. The following applies: HepG2 caspase-3/7 activation, Caspase-Glo luminescence, 17 h. The procedure, abridged:
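Wild-type HepG2 cells (2,000/well) were settled 5 h at 37 C, 5% CO2, then exposed to compounds in DMSO for 17 h. Caspase-3/7 activity was read by luminescence 30 min after adding Caspase-Glo 3/7 reagent at room temperature.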

Test [6] addresses Nuclear receptor subfamily 1 group I member 2 (Homo sapiens) (UniProt O75469). Description: CYP3A4 induction through human pregnane X receptor (PXR) by small molecules, qHTS assay (AID 1346984). Further: nearly all actives have a fitted effect of over 40% in size. Conditions: DPX-2 HepG2 PXR, CYP3A4-luciferin luminescence, 24 h; series mostly up to 46.1 µM. The procedure, abridged:
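Human PXR activation is tracked via CYP3A4 promoter-luciferase in DPX-2 (HepG2) cells. Compounds treat cells for 24hr at 37C, and luminescence is read after One-Glo.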

The target is the same in test [7]. Description: Human pregnane X receptor (PXR) activation by small molecules, qHTS assay (AID 1346985). Further: nearly all actives have a fitted effect of over 40% in size. Further: potency means the concentration at half of the fitted maximal effect. Conditions: DPX-2 HepG2 CYP3A4-luciferase, 24 h; series mostly up to 38.3 µM.
On the % scale 0 is the no-effect control and ±100 the full control effect.

`CCN1CCC[C@H]1CNC(=O)c1c(OC)ccc(Br)c1OC`: the activity, negative = inhibition in test [1] (at 23.6 µM (top of the series)) is inactive: 0.133%. In the case of `CC(=O)OCC(=O)[C@@]1(OC(C)=O)[C@@H](C)C[C@H]2[C@@H]3C[C@H](F)C4=CC(=O)C=C[C@]4(C)[C@@]3(F)[C@@H](O)C[C@@]21C`, in test [2], the Potency entry was “inactive”. On the same count and under the same terms, the result for `O=c1n(CCCN2CCN(c3cccc(Cl)c3)CC2)nc2ccccn12` reads active: 19.3 µM and active: 11.9 µM. With `Cc1onc(-c2ccccc2Cl)c1C(=O)N[C@@H]1C(=O)N2[C@@H]1SC(C)(C)[C@@H]2C(=O)O`, the activity, negative = inhibition in test [1] (at 23.6 µM (top of the series)) is inactive: -15.3%. For the compound `O=C(O)c1cccc([N+](=O)[O-])c1`, the Potency entry in test [2] was “inactive”. `C#C[C@]1(O)CC[C@H]2[C@@H]3CCC4=CC(=O)CC[C@@H]4[C@H]3CC[C@@]21C`: the figures for the activity, negative = inhibition in test [1] (at 23.6 µM (top of the series)) and in test [1] (at 51.3 µM (top of the series)) were inactive: -8.15% and inactive: 1.43%, respectively. As to `NC[C@H](O)c1ccc(O)c(O)c1`, the figures for the activity, negative = inhibition in test [1] (at 23.6 µM (top of the series)) and in test [1] (at 51.3 µM (top of the series)) were inactive: -2.49% and inactive: 4.21%, respectively. Take `CCN(CC)CCOCCOC(=O)C1(c2ccccc2)CCCC1`: the activity, negative = inhibition in test [1] (at 23.6 µM (top of the series)) was inactive: -2.95%. On the same count and under the same terms, the result for `CN1C(CCl)Nc2cc(Cl)c(S(N)(=O)=O)cc2S1(=O)=O` (stereo unspecified) reads inactive: -0.456%. `O=C(Nc1ccc([N+](=O)[O-])cc1Cl)c1cc(Cl)ccc1O`: the activity, negative = inhibition in test [1] (at 10.5 µM (top of the series)) is inactive: -3.54%; in test [1] (at 51.3 µM (top of the series)), inactive: -6.06%. Turning to `CC1=NS(=O)(=O)c2cc(Cl)ccc2N1`, the activity, negative = inhibition in test [1] (at 23.6 µM (top of the series)) was inactive: 4.92%.

As to `O=C1OC(c2ccc(O)cc2)(c2ccc(O)cc2)c2ccccc21`, the activity, negative = inhibition was inactive: 0.264% in test [1] (at 23.6 µM (top of the series)); inactive: -1.61% and inactive: -0.596% in test [1] (at 51.3 µM (top of the series)). With `CCCCCCCCCCCCCCCCOP(=O)([O-])OCC[N+](C)(C)C`, in test [1] (at 23.6 µM (top of the series)), the activity, negative = inhibition is inactive: -4.89%. Turning to `COc1ccc2cc([C@H](C)C(=O)O)ccc2c1`, the activation is inactive: -4.9% in test [3] (at 34.7 µM (top of the series)), inactive: -1.24% in test [3] (at 73.3 µM (top of the series)), inactive: 1.13% in test [4] (at 32.5 µM (top of the series)) and inactive: 0.233% in test [4] (at 70.3 µM (top of the series)). Also, the activity, negative = inhibition was inactive: 3.72% with Aromatase (Homo sapiens) (at 32.5 µM (top of the series)) and inactive: 0.857% with Aromatase (Homo sapiens) (at 70.3 µM (top of the series)). Besides, the caspase activation in test [5] (at 42.5 µM (top of the series)) was inactive: -5.5%; in test [5] (at 92.4 µM (top of the series)), inactive: -6.52%. As to `Oc1ccc(C2CNCCc3c2cc(O)c(O)c3Cl)cc1` (stereo unspecified), the activity, negative = inhibition in test [1] (at 23.6 µM (top of the series)) was inactive: 4.42%. Take `CC1(C)S[C@@H]2[C@H](NC(=O)[C@H](N)c3ccccc3)C(=O)N2[C@H]1C(=O)O`: the activity, negative = inhibition is inactive: 1.49% in test [1] (at 23.6 µM (top of the series)); inactive: 0.009% and inactive: 4.34% in test [1] (at 51.3 µM (top of the series)). For the compound `CCN(CC)C(C)CN1c2ccccc2Sc2ccccc21` (stereo unspecified), the activity, negative = inhibition in test [1] (at 23.6 µM (top of the series)) was inactive: 1.66%. Consider `CC(COc1ccccc1)N(CCCl)Cc1ccccc1` (stereo unspecified), for which the activity, negative = inhibition in test [1] (at 23.6 µM (top of the series)) is inactive: -8.74%; in test [1] (at 51.3 µM (top of the series)) it was inactive: -2.61% and inactive: -0.64%. On to `CN(C)CCOC(C)(c1ccccc1)c1ccccn1` (stereo unspecified), for which the activity, negative = inhibition is inactive: 2.84% in test [1] (at 23.6 µM (top of the series)); inactive: 2.53% and inactive: -0.906% in test [1] (at 51.3 µM (top of the series)). With `CN(C)CCOc1ccc(/C(=C(/CCCl)c2ccccc2)c2ccccc2)cc1`, the Potency in test [2] is active: 7.21 µM.

`CC(C)NCC(O)COc1ccc(CCOCC2CC2)cc1` (stereo unspecified): the Potency result in test [2] is “inactive”. For the compound `CCOC(=O)n1ccn(C)c1=S`, the activity, negative = inhibition was inactive: -4.33% in test [1] (at 23.6 µM (top of the series)) and inactive: 2.27% in test [1] (at 51.3 µM (top of the series)).

In the case of `N[C@@H](CCC(=O)N[C@@H](CS)C(=O)NCC(=O)O)C(=O)O`, the activity, negative = inhibition in test [1] (at 10.5 µM (top of the series)) was inactive: -0.194%. For the same compound, the Potency result in test [2], in test [6] and in test [7] was “inactive” throughout.

With `COc1cc(NS(=O)(=O)c2ccc(N)cc2)ncn1`, in test [2], the Potency entry is “inactive”. For `CCn1cc(C(=O)O)c(=O)c2cnc(N3CCCC3)nc21`, in test [2], the activation is inactive: -11.8% [at 8.39 µM]. For the same compound, the Potency result in test [6] and in test [7] was “inactive” each time. Consider `CN1C(=O)CC[C@H]1c1cccnc1`, for which the Potency entry in test [2], in test [6] and in test [7] was “inactive” each time. `CC(C)NCC(O)c1ccc(O)c(O)c1` (stereo unspecified): in test [2], the Potency entry was “inactive”. Turning to `CC(C(=O)O)c1ccc2c(c1)Cc1cccnc1O2` (stereo unspecified), the Potency result in test [2] is “inactive”. As to `O=P(O)(O)O`, the Potency entry in test [2], in test [6] and in test [7] was “inactive” in each case. Turning to `O=C(O)CN(CCN(CC(=O)O)CC(=O)O)CC(=O)O`, the activation in test [2] is inactive: 4.59% [at 3.27 µM]. Further, the Potency entry in test [6] and in test [7] was “inactive” throughout.

As for `CC(C(=O)O)c1ccc(C(=O)c2cccs2)cc1` (stereo unspecified), the Potency entry in test [2], in test [6] and in test [7] was “inactive” each time. Take `C[C@H]1[C@H]2CC[C@H]3[C@@H]4CC=C5C[C@@H](N(C)C)CC[C@]5(C)[C@H]4CC[C@]23CN1C`: the Potency result in test [2], in test [6] and in test [7] was “inactive” in each case.

For the compound `Cc1ncc[nH]1`, the Potency result in test [2], in test [6] and in test [7] was “inactive” in each case. As for `COc1nc(N)nc2c1ncn2[C@@H]1O[C@H](CO)[C@@H](O)[C@@H]1O`, the Potency entry in test [2], in test [6] and in test [7] was “inactive” each time. With `CC1(C)NC(=O)N(c2ccc([N+](=O)[O-])c(C(F)(F)F)c2)C1=O`, in test [2], the Potency was active: 27.3 µM and inactive. As for `Cc1c(O)cccc1C(=O)N[C@@H](CSc1ccccc1)[C@H](O)CN1C[C@H]2CCCC[C@H]2C[C@H]1C(=O)NC(C)(C)C`, in test [6], the Potency result is “inactive”.

For `CN1CCN(CCCN2c3ccccc3Sc3ccc(C(F)(F)F)cc32)CC1`, the Potency result in test [2] was “inactive”. For the same compound, the Potency in test [7] is active: 28.2 µM.

With `CN(C)CCC(c1ccccc1)c1ccccn1` (stereo unspecified), the Potency entry in test [2] was “inactive”.

Consider `CC1=CC(=O)NS(=O)(=O)O1`, for which the Potency result in test [2], in test [6] and in test [7] was “inactive” throughout.
